Common to all, as to assay type: physicochemical
Series [1] in a line: Extrusion feeling through a 23 gauge injection needle. Further details: key: ◯: easily extruded; X: difficulty extruded. The conditions noted are these: whole gel (2 ml to 5 ml) in 5 ml syringe, 23 gauge needle, limit pressure 0.5 to 5 kg/cm^2. The method, then: Evaluation was carried out in accordance with the following criteria. ◯: easily extruded X: difficulty extruded Incidentally, with regard to the criteria for the extrusion feeling, within the range of a limit pressure (0.5 to 5 kg/cm^2), when a whole gel (2 ml to 5 ml) filled in a syringe having a volume of 5 ml was extruded through an injection needle of 23 gauge, it was evaluated to as easily extruded (◯). Also, according to the same operation, when not a whole gel filled in a syringe was extruded, for example, by clogging due to insoluble materials, it was evaluated to as difficulty extruded (X).

Series [2] is described as follows: Extrusion state from the tip of a 23 G injection needle (characteristics). Also noted: key: ◯: formed a mass or a lump having a shape-maintaining property at the tip of the injection needle; X: did not form a mass. The note with it: slowly extruded from an injection needle with 23 G downward. The method, then:
(§1) Evaluation was carried out in accordance with the following criteria.

Series [3] is described as follows: Viscosity measured with a rotation viscometer. The conditions noted are these: gel from 1% solution in phosphate buffered physiological saline, photoirradiated, heat treatment; rotation viscometer at 20° C., standard cone (1°34′, 1 rpm). The method, then: A 1% phosphate buffered physiological saline solution of the obtained naproxen-introduced photo-reactive HA (photo-reactive group: cinnamic acid) was prepared, and filled in a 5 mL glass syringe.
as §1

The term viscosity denotes the internal friction of a fluid under shear. With “naproxen-introduced photo-crosslinked HA gel [Example 2]”, in series [1], the Extrusion feeling entry is given as “◯”. In addition, the Extruded state result in series [2] was “◯”. The viscosity in series [3] was determined as 34.7 Pa·s.

(Values after patent US8354392B2, “Drug-introduced photo-crosslinked hyaluronic acid derived gel” (priority 2005, dated 2013).)
